The chains behind the UniProt entries cited, without tags or fusion partners.
UniProt P10275, whole entry F877L: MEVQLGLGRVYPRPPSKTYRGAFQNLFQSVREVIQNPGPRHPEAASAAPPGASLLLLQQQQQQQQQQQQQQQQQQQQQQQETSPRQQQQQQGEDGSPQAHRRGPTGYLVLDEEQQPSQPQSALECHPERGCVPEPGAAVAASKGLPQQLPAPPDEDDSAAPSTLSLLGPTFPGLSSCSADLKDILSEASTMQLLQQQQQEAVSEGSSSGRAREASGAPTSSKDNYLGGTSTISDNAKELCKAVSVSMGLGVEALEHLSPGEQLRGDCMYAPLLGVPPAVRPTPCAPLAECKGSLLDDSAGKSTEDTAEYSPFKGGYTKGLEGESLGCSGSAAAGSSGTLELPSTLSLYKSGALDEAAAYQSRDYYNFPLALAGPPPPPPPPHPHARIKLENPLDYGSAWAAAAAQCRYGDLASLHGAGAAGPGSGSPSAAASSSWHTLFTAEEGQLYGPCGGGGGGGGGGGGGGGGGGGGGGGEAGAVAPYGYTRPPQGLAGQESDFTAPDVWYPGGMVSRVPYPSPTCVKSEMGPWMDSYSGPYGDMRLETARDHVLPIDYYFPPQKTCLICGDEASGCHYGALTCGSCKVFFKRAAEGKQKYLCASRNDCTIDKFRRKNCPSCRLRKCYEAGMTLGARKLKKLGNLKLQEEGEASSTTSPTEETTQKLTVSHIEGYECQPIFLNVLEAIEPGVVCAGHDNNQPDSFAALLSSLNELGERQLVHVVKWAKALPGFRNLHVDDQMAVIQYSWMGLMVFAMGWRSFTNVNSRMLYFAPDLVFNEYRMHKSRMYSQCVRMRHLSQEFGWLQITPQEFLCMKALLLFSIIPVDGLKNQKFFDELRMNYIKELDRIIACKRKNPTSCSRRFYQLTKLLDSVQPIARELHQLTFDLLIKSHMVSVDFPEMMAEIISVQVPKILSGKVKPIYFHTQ

According to ChEMBL document CHEMBL4819022, “Discovery of JNJ-63576253: A Clinical Stage Androgen Receptor Antagonist for F877L Mutant and Wild-Type Castration-Resistant Prostate Cancer (mCRPC)” (J Med Chem, 2021):

How the values were obtained:
Androgen receptor [1] = target: T1, Androgen receptor (Homo sapiens, UniProt P10275); assay: biochemical; assay type: cell-based, LNCaP
[2] = test system: Androgen receptor (Homo sapiens), P10275 [F877L]; assay: Antagonist activity at AR F877L mutant (unknown origin) transfected in human LNCAP cells cotransfected with ARE-LUC incubated for 20 to 24 hrs in presence of AR agonist R1881 by steady-glo luciferase reporter gene assay relative to control; assay type: cell-based; conditions: filed as antagonist, time 20-24 hrs
Androgen receptor [3] = target: T1, Androgen receptor; assay: biochemical; assay type: cell-based, LNCaP; remark: listed apart in the source
[4] = test system: Androgen receptor (Homo sapiens), P10275 [F877L]; conditions: HepG2, dose 300.0 nM, time 48.0 hrs

Ki (Androgen receptor [1]) [nM] | Imax [2] [%] | IC50 (Androgen receptor [3]) [nM] | Emax [4] [%] | Compound
8.4 | > 90 | 19 | 10 | CN1CCC(Oc2ccc(N3C(=S)N(c4cnc(C#N)c(C(F)(F)F)c4)C(=O)C34CCC4)cc2)CC1
 | > 90 |  |  | N#Cc1ncc(N2C(=O)C3(CCC3)N(c3ccc(OC4CCNCC4)cc3)C2=S)cc1C(F)(F)F
